Source: patent US8999940B2, “Analogues of glucose-dependent insulinotropic polypeptide (GIP) modified at N-terminal” (Ipsen Pharma S.A.S., priority 2008, dated 2015)

What was measured:
[1] = biological target: T1, human recombinant GIP receptor (Homo sapiens, UniProt P48546); assay: In vitro hGIP receptor binding assay
T1 construct: expressed in transfected cells; host or cells: CHO-K1 clonal cells (membrane preparation)
T1 sequence (P48546 22-466): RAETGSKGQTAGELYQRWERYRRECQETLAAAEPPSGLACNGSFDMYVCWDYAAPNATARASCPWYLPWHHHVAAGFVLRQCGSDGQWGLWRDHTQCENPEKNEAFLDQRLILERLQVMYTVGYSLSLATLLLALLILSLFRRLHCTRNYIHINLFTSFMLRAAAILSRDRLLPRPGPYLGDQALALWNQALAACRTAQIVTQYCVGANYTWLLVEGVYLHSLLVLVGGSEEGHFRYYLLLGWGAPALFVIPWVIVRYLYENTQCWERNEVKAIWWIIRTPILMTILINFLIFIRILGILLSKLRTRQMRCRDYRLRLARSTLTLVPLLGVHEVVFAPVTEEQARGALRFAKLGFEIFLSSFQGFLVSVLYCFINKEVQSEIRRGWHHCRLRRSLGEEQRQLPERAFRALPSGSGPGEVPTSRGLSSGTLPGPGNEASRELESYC
Method: A. In Vitro hGIP Receptor Binding Assay […] The incubations were terminated by rapid filtration through GF/C filters (pre-soaked in 0.5% polyethylenimine) using a Brandel filtration manifold. Each tube and filter were then washed three times with 5-ml aliquots of ice-cold buffer. Specific binding was defined as the total radioligand bound minus that bound in the presence of 1000 nM GIP.

[2] = Human plasma half-life assay; format: in vitro ADME; conditions: 37° C., LC-MS, read-out: Human Plasma T½ (converted)
Method: (§1) B. Human and Rat Plasma Half-Life Assay
(§2) GIP peptide (50 μl 1 mg/ml) was added to 450 μl plasma (human or rat), vertexed briefly and incubated at 37° C. 50 μl was removed at various times, like at 0, 1, 2, 3, 4, 8, 24, 32, 48, 56, 72 hours, mixed with 5 μl formic acid and 150 μL acetonitrile in a microcentrifuge tube, vertexed, and centrifuged for 10 minutes at 10 K rpm. The supernatant was transferred to an injection vial and analyzed by LC-MS. The LC-MS system consisted of an API4000 mass spectrometer with an ESI probe. Positive ion mode and full scan detection were used. HPLC separation was carried out on a Luna 3μ. C8 (2), 2×30 mm column with a gradient from 90% A to 90% B in 10 minutes at a flow rate of 0.3 ml/min. Buffer A was 1% formic acid in water and buffer B was 1% formic acid acetonitrile.

[3] = Rat plasma half-life assay; format: in vitro ADME; conditions: 37° C., LC-MS, read-out: Rat Plasma T½ (converted)
Method: as §1, §2

Which Ki [1] does the source give for CCCC[C@H](NC(=O)C(C)(C)NC(=O)[C@@H](NC(=O)[C@H](CO)NC(=O)[C@H](Cc1ccc(O)cc1)NC(=O)[C@H](CC(=O)O)NC(=O)[C@H](CO)NC(=O)[C@@H](NC(=O)[C@H](Cc1ccccc1)NC(=O)[C@@H](NC(=O)CNC(=O)[C@H](CCC(=O)O)NC(=O)C(C)(C)NC(=O)[C@@H](N)Cc1cc(Br)c(O)c(Br)c1)[C@@H](C)O)[C@@H](C)CC)[C@@H](C)CC)C(=O)N[C@@H](CC(=O)O)C(=O)N[C@@H](CCCCN)C(=O)N[C@H](C(=O)N[C@@H](Cc1c[nH]cn1)C(=O)N[C@@H](CCC(N)=O)C(=O)N[C@@H](CCC(N)=O)C(=O)N[C@@H](CC(=O)O)C(=O)N[C@@H](Cc1ccccc1)C(=O)N[C@H](C(=O)N[C@@H](CC(N)=O)C(=O)N[C@@H](Cc1c[nH]c2ccccc12)C(=O)N[C@@H](CC(C)C)C(=O)N[C@@H](CC(C)C)C(=O)N[C@@H](C)C(=O)N[C@@H](CCC(N)=O)C(=O)N[C@@H](CCCCN)C(=O)NCC(=O)N[C@@H](CCCCN)C(=O)N[C@@H](CCCCN)C(=O)N[C@@H](CC(N)=O)C(=O)N[C@@H](CC(=O)O)C(=O)N[C@@H](Cc1c[nH]c2ccccc12)C(=O)N[C@@H](CCCCN)C(=O)N[C@@H](Cc1c[nH]cn1)C(=O)N[C@@H](CC(N)=O)C(=O)N[C@H](C(=O)N[C@H](C(=O)N[C@@H](CCC(N)=O)C(=O)O)[C@@H](C)O)[C@@H](C)CC)C(C)C)[C@@H](C)CC [Example 11, (3,5Br-Tyr^1, Aib^2, 13, Nle^14)hGIP(1-42)-OH] here?
Its Ki is 4.26 nM.

And the half-life at 0.1 mg/ml [2]?
The half-life at 0.1 mg/ml was 30 h.

And the half-life at 0.1 mg/ml [3]?
The half-life at 0.1 mg/ml was 11.8 h.
